Literature values as cited in patent publication US6761903B2, “Clear oil-containing pharmaceutical compositions containing a therapeutic agent” (Lipocine, Inc., priority 1999, dated 2004).

Conditions: as reported by the manufacturer of the commercial product, rough average or inventors' judgment

Substance | HLB
Lactic acid esters of mono, diglycerides | <10
PEG-4 laurate | 9.3
PEG-6 laurate | 11.4
PEG-10 sorbitan laurate | >10
PEG-10-100 nonyl phenol | >10
PEG-15-100 octyl phenol ether | >10
PEG-40 laurate | 17.9
Propylene glycol caprylate/caprate | >6
